{"sequences": {"note": "Chains of the proteins cited; added tags and fusions are not shown.", "UniProt Q70CQ3, whole entry": "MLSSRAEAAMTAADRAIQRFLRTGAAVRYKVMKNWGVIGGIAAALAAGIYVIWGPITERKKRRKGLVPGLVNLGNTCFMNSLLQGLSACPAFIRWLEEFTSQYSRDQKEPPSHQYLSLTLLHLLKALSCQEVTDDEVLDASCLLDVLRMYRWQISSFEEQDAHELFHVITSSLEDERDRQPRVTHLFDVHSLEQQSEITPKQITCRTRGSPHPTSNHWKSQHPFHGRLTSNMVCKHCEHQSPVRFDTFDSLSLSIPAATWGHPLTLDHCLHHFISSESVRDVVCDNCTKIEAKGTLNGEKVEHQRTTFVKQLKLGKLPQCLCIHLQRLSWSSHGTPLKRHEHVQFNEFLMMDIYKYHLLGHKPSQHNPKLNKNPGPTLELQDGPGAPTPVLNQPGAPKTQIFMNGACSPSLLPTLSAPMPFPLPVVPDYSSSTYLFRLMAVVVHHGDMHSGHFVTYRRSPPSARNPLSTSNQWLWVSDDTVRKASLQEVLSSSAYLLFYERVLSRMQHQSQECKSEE"}, "source": "PubChem BioAssay AID1645860", "about": "(Buhrlage Lab, Dana-Farber Cancer Institute and Novartis …, 2021)", "note": "This is a selection; strong and weak results do not stand in their true shares. Active and inactive are the calls of the source. No stated cut-off is given here; in the data, active means inhibition above about 30%; inactive means the rest."}
{"target": "Ubiquitin carboxyl-terminal hydrolase 30 (Homo sapiens) (UniProt Q70CQ3)", "test": "blocks human USP30 ubiquitin-rhodamine cleavage (AID 1645860)", "settings": "purified USP30, Ub-rhodamine cleavage fluorescence; at 25 µM; stronger effect = higher value"}
{"molecule": "O=C(NCC1(N2CCCCC2)CCCCC1)c1ccc(F)cc1", "inhibition": "inactive: -170%"}
{"molecule": "CC1CN(CCc2ccccc2)CCC1=O", "note": "(stereo not drawn)", "inhibition": "inactive: 11.9%"}
{"molecule": "O=C(NCC1(N2CCCCC2)CCCCC1)c1ccc2ncsc2c1", "inhibition": "inactive: -22.6%"}
{"molecule": "Cc1ccccc1C(=O)NCC1(N2CCOCC2)CCCCC1", "inhibition": "inactive: -1.84%"}
{"molecule": "Cc1cc(C(=O)NCC2(N3CCOCC3)CCCCC2)c2ccccc2n1", "inhibition": "inactive: 3.16%"}
{"molecule": "O=C(NCC1(N2CCOCC2)CCCCC1)c1ccccc1Cl", "inhibition": "inactive: -7.14%"}
{"molecule": "N#Cc1ccc(C(=O)NCC2(N3CCCCC3)CCCCC2)cc1", "inhibition": "inactive: -15.2%"}
{"molecule": "CN(C)c1ccc(C(=O)NCC2(N3CCCCC3)CCCCC2)cc1", "inhibition": "inactive: 0.0678%"}
